The target in the experiment is Integrin alpha-IIb/beta-3 (Homo sapiens, UniProt P05106+P08514). Nature of the experiment: The compound was tested for the inhibition of fibrinogen receptor. Type of experiment: protein-complex assay. The method in brief:
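Solid-phase ELISA: human fibrinogen (10 µg/mL) coated, BSA-blocked; samples plus purified human platelet GPIIbIIIa (40 µg/mL) incubated 1 h at room temperature. Bound receptor detected with anti-GPIIbIIIa antibody AP3 (1 µg/mL, 1 h), then goat anti-mouse HRP (1 h); OPD/H2O2 at pH 5, stopped with H2SO4, absorbance 492-405 nm. IC50 from four-parameter fit; n ≥ 3.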

By UniProt entry, the sequences of proteins in these tests, tags left out. Residues count along the entry.
UniProt P05106, 27-788 limits assumed: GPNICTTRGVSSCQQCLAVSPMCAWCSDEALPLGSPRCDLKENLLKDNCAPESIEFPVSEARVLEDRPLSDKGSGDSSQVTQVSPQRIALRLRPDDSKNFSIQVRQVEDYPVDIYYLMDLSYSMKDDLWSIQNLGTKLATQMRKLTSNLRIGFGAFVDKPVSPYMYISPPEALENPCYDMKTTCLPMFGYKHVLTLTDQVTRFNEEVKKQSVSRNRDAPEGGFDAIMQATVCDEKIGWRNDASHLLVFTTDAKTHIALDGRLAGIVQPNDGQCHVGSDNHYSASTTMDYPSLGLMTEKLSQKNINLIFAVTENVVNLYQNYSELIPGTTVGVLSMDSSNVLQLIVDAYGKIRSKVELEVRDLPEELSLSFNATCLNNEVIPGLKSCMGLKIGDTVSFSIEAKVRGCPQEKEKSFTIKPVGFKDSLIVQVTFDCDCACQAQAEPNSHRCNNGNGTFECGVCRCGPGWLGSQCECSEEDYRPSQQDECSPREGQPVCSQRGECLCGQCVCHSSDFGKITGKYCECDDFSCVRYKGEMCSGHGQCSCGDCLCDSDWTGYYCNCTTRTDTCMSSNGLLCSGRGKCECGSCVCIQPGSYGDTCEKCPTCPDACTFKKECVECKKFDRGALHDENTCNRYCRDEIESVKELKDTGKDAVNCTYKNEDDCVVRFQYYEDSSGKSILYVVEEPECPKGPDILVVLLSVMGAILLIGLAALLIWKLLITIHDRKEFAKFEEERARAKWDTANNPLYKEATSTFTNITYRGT
UniProt P08514, 32-887 limits assumed: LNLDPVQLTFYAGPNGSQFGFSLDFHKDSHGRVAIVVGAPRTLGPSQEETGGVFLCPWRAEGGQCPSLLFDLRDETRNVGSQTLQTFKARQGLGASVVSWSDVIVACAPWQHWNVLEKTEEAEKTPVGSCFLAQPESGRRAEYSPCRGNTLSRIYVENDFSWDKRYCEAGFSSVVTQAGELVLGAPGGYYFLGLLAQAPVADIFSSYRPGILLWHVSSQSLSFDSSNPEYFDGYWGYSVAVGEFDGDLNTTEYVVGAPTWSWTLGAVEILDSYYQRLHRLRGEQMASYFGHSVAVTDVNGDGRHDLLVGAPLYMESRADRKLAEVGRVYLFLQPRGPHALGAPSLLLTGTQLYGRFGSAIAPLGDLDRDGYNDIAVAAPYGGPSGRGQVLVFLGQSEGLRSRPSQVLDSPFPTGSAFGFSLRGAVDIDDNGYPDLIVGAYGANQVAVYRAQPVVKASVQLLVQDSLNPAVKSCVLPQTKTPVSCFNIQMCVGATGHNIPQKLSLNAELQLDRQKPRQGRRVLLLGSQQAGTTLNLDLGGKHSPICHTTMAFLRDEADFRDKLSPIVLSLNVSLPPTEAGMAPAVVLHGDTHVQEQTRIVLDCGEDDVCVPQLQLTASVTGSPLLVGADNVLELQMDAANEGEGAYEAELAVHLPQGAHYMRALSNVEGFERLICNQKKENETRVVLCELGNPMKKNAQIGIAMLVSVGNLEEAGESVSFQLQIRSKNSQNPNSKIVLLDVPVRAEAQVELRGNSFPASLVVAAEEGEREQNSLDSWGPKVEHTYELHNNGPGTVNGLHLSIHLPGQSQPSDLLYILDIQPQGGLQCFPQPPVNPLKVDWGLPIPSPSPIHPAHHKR
UniProt P08514, 891-1039 limits assumed: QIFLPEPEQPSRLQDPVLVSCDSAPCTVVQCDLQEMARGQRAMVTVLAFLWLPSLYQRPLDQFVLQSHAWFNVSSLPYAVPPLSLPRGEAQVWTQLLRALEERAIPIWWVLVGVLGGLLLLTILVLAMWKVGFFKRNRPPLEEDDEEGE

In turn, `NCC(=O)N[C@@H](CCCN=C(N)N)C(=O)NCC(=O)N[C@@H](CC(=O)O)C(=O)N[C@@H](Cc1ccccc1)C(=O)O` had an IC50 of 83 nM.

For the compound `N=C(N)NCCC[C@H](NC(=O)CN)C(=O)NCC(=O)N[C@@H](CC(=O)O)C(=O)N[C@@H](CO)C(=O)O`, the half-maximal inhibitory concentration (IC50) was determined as 133 nM.

For the origin of these results see ChEMBL document CHEMBL1126061, “Cyclic RGD peptide analogues as antiplatelet antithrombotics” (J Med Chem, 1992).
